# Experimental data published in PubChem BioAssay (NCI).
# “And” between values parts separate entries of the source, which are not always exact repeats. Equal entries are not always repeated.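 A five-concentration, 48-hour dose response in 96-well plates underlies each endpoint, interpolated linearly between surrounding concentrations. GI50 is the concentration that inhibits growth by half. Definition used: TGI = concentration required for complete inhibition of growth.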
# Experiments:
# Assay in all cases: NCI anticancer screen, dose series, 48 h
# A549 NSCLC = test system: A549 NSCLC
# CAKI-1 renal = test system: CAKI-1 renal
# HCT-15 colon = test system: HCT-15 colon
# HOP-18 NSCLC = test system: HOP-18 NSCLC
# IGROV1 ovarian = test system: IGROV1 ovarian
# LOX IMVI melanoma = test system: LOX IMVI melanoma
# M14 melanoma = test system: M14 melanoma
# NCI-H460 lung = test system: NCI-H460 lung
# OVCAR-5 ovarian = test system: OVCAR-5 ovarian
# RPMI-8226 leukemia = test system: RPMI-8226 leukemia
# SF-295 CNS = test system: SF-295 CNS
# SK-MEL-2 melanoma = test system: SK-MEL-2 melanoma
# SK-MEL-28 melanoma = test system: SK-MEL-28 melanoma
# SN12C renal = test system: SN12C renal
# SN12K1 renal = test system: SN12K1 renal
# SNB-78 CNS = test system: SNB-78 CNS
# U251 CNS = test system: U251 CNS
# UACC-62 melanoma = test system: UACC-62 melanoma
smiles,measurement,setting,value
CC1=C[C@H]2O[C@@H]3C[C@H]4OC(=O)/C=C\C=C\[C@H]([C@@H](C)O)OC[C@H](O)[C@@]5(C)O[C@@H]5C(=O)OC[C@@]2(C[C@H]1O)[C@]4(C)C31CO1 (some centres undefined),GI50,A549 NSCLC,387 nM and 398 nM
same,TGI,A549 NSCLC,2480 nM and 1200 nM
same,GI50,CAKI-1 renal,69 nM
same,TGI,CAKI-1 renal,249 nM
same,GI50,HCT-15 colon,356 nM and 175 nM
same,TGI,HCT-15 colon,2420 nM and 1940 nM
same,GI50,HOP-18 NSCLC,348 nM
same,TGI,HOP-18 NSCLC,1280 nM
same,GI50,IGROV1 ovarian,31.5 nM
same,TGI,IGROV1 ovarian,97.6 nM
same,GI50,LOX IMVI melanoma,14.1 nM and 102 nM
same,GI50,M14 melanoma,15.2 nM
same,TGI,M14 melanoma,53.9 nM
same,GI50,NCI-H460 lung,34.8 nM and 56.2 nM
same,TGI,NCI-H460 lung,173 nM and 176 nM
same,GI50,OVCAR-5 ovarian,316 nM
same,TGI,OVCAR-5 ovarian,985 nM and 2150 nM
same,GI50,RPMI-8226 leukemia,< 10 nM and 18.9 nM
same,TGI,RPMI-8226 leukemia,22 nM and 53.6 nM
same,GI50,SF-295 CNS,160 nM and 96.2 nM
same,TGI,SF-295 CNS,465 nM and 278 nM
same,GI50,SK-MEL-2 melanoma,29.1 nM
same,TGI,SK-MEL-2 melanoma,73.6 nM
same,GI50,SK-MEL-28 melanoma,10.3 nM and 28.9 nM
same,TGI,SK-MEL-28 melanoma,49.5 nM and 84.6 nM
same,GI50,SN12C renal,215 nM and 158 nM
same,TGI,SN12C renal,1620 nM and 1280 nM
same,GI50,SN12K1 renal,30.3 nM
same,TGI,SN12K1 renal,64.2 nM
same,GI50,SNB-78 CNS,54.7 nM
same,TGI,SNB-78 CNS,616 nM
same,GI50,U251 CNS,29 nM and 46.3 nM
same,GI50,UACC-62 melanoma,45.3 nM
same,TGI,UACC-62 melanoma,114 nM
